Experimental data: EP4314010B1, “MODIFIED PEPTIDOMIMETICS AND METHODS OF USE” (dated 2026)

Protein sequences, listed by entry. Tags and fused reporters are not part of them. Residues count along the entry.
UniProt P08246, 30-267 limits assumed: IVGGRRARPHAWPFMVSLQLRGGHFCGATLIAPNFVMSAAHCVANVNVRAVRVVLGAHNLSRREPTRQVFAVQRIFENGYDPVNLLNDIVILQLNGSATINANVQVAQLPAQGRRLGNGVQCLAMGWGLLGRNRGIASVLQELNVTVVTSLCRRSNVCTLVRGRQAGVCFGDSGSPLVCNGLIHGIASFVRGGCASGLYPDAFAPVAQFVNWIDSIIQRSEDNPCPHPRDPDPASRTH

Experiments:
HEK293T cells = assay: Cytoplasmic Ca2+ (Fluo-4) in HEK293T cells incubated with ELD peptides; details: 2 hours with Fluo-4 plus or minus peptide, compared to a control scrambled peptide
Experimental: (§1) HEK293T cells were plated and incubated for 2 hours with Fluo-4 plus or minus ELD peptides, with fluorescent images taken every 30 seconds for 2-6 minutes at excitation/emission wavelengths of 488/530 nm. […] Candidate peptides ELD604 (not claimed), 607 (claimed), 601 (not claimed), and 100 (reference) were tested for resistance against protease degradation, wherein the peptides were incubated with neutrophil elastase, treated with the elastase inhibitor sivelestat at various timepoints to halt ongoing reactions, and then analyzed by HPLC (FIG. 9).

neutrophil elastase = neutrophil elastase (Homo sapiens, UniProt P08246); assay: Neutrophil elastase degradation, stopped with sivelestat, HPLC; details: incubated with neutrophil elastase
Experimental: as §1
These peptides were not degraded by trypsin. Neutrophil elastase, which is one of the major proteases in the CF lung, was also tested. ELD601 was the shortest peptides generated and lacked valines, which are a substrate for neutrophil elastase. Also made was ELD604 (not claimed), which is ELD601 flanked with D-alanines to prevent exoproteases. […] Despite lacking valines, ELD601 was still degraded by elastase.
Endogenous Orai1/store operated Ca^2+ influx have been extensively studied in HEK293T cells, so this cell type was used to understand ELD607-Orai1 interactions. […] Thapsigargin is a SERCA pump inhibitor that prevents uptake of cytosolic Ca^2+ into the endoplasmic reticulum. Thapsigargin is commonly used to stimulate Orai1/store operated Ca^2+ influx. […]

| Substance | cytoplasmic Ca^2+ (HEK293T cells) | resistance to neutrophil elastase degradation (neutrophil elastase) |
| --- | --- | --- |
| n-VHDIVNMLIHG-n | reduced cytoplasmic calcium levels |  |
| a-HDIVNMLIH-a | reduced cytoplasmic calcium levels | significantly more stable |
